Reference: US20250304643A1 (BAINAN BIOTECH, published 2025)

T1: human glucagon-like peptide-2 receptor (human, UniProt O95838 1-553)
T1 sequence (looked up): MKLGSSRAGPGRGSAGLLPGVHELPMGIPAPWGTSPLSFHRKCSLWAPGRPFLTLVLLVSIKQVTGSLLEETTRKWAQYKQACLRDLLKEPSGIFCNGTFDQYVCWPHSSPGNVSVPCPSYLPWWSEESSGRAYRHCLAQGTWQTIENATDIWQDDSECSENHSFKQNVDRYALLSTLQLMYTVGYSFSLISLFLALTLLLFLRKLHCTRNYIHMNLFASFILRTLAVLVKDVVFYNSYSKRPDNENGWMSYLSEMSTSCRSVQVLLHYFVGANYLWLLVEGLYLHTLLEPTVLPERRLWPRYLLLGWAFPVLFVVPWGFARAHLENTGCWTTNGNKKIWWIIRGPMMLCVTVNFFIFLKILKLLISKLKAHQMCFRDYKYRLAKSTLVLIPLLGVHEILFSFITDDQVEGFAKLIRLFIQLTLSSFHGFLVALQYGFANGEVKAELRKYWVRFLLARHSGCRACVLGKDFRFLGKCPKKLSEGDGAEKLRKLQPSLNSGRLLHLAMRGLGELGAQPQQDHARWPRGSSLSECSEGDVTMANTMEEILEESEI

T2: human glucose-dependent insulinotropic polypeptide receptor (human, UniProt P48546 22-466)
T2 sequence (looked up): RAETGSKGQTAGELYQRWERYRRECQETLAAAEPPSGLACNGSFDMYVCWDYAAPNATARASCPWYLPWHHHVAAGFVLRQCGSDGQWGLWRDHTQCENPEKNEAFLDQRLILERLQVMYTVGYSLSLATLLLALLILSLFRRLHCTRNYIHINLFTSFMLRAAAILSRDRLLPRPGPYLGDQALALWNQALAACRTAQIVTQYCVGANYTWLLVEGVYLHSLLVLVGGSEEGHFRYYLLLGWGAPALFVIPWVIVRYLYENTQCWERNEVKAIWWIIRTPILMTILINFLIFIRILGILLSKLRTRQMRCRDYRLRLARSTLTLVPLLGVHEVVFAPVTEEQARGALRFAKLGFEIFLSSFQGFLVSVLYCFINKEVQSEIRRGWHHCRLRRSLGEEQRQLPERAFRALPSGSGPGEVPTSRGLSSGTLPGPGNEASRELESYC

B1: Compound no. 2 (peptide)
peptide: HADGTFISDYSTILDNLAARDFINWLIQTKIT
modifications: C16 fatty acid at the N-terminus
B2: Compound no. 15 (peptide)
peptide: HADGTFISDYSTILELLAARDFINWLIQTKITKNDWKHNITQ
modifications: C16 fatty acid at the N-terminus; C-terminal COOH
B3: Compound no. 4 (peptide)
peptide: HADGTFISDYSTILDNLAARDFINWLIQTKITD
modifications: C16 fatty acid at the N-terminus
B4: Compound no. 1 (peptide)
peptide: B3 peptide
modifications: C16 fatty acid at the N-terminus
B5: Compound no. 46 (peptide)
peptide: B3 peptide with I27L, Q28A, T29Q, D33K
modifications: C16 fatty acid at the N-terminus
B6: Compound no. 3 (peptide)
peptide: B2 peptide with E15D, L16N, R20K
modifications: C10 fatty acid at the N-terminus
B7: Compound no. 44 (peptide)
peptide: B3 peptide with A2X, I13X, D33K
modifications: C10 fatty acid at the N-terminus; Aib at 2 and 13; C-terminal -OH
B8: Compound no. 45 (peptide)
peptide: B3 peptide with R20K, D33K
modifications: C16 fatty acid at the N-terminus
B9: Compound no. 18 (peptide)
peptide: B3 peptide with A2X, I13X, D33K
modifications: C10-diacid at the N-terminus; Aib at 2 and 13; C-terminal -OH

biological target: T1, human glucagon-like peptide-2 receptor; assay: cell-based or functional assay

B1 and B2 are the same in “EC50 (nM) GLP-2R” value: 50.1 nM for the first, 50.1 nM for the second.

B3 and B4 are the same in “EC50 (nM) GLP-2R” value: 27.1 nM for the first, 27.1 nM for the second.

In the case of B5, the “EC50 (nM) GLP-2R” value is reported as 23.3 nM.

B1 and B2 are the same in “logEC50 GLP-2R” value: 7.3 for the first, 7.3 for the second.

B3 and B4 are the same in “logEC50 GLP-2R” value: 7.6 for the first, 7.6 for the second.

B5 was tested, and the “logEC50 GLP-2R” value was 7.6.

biological target: T2, human glucose-dependent insulinotropic …; assay: cell-based or functional assay

B1 and B6 are within 1.5-fold of each other in “EC50 (nM) GIPR” value: 0.464 nM for the first, 0.584 nM for the second.

Compared with B2, B7 is 2.7-fold lower in “EC50 (nM) GIPR” value: 2.93 nM for the first, 1.07 nM for the second.

Going from B5 to B8, the “EC50 (nM) GIPR” value rises from 1.58 nM to 2.71 nM (1.7-fold).

B9 was tested, and the “EC50 (nM) GIPR” value was 4.22 nM.

Where a chain is given by its changes, count along the chain named.
